# Source: patent publication US10172951B2, “Dendrimer based nanodevices for therapeutic and imaging purposes” (priority 2009, dated 2019)
# How the values were obtained:
# [1] = Transmembrane transport and permeability, chorioamnion; format: in vitro ADME, human; details: chorioamnion (intact membrane)
# From the text: (§1) All human fetal membrane specimens were obtained at the time of cesarean section for obstetrical indications. The fetal membrane comprising chorioamniotic membrane (intact membranous tissue containing both amnion and chorion together) (n=7) and amnion (n=7) and chorion (n=7) were separately procured (size 6×9″). Each membrane was cut into 9 pieces for the 9 sets of diffusion chamber. The fresh membranes were collected immediately after the delivery, washed with PBS to remove the blood and stored in PBS until (˜1 h at 4° C.) it was mounted on the diffusion chamber (37±0.5° C.). Excess membranes were trimmed. […] Further, some sections were analyzed by hematoxylin and eosin (H & E) staining. The membrane thickness was measured using the Mitutoyo Super Caliper by placing the respective membranes between the two glass slides and subtracting the thickness of the glass slides without the membrane.
# (§2) Permeation experiments were carried out using a two-chamber (donor and receptor) side-by-side Permegear diffusion cell with a chamber volume of 3 mL and with a diameter of 13 mm and a diffusional area of 1.32 cm^2. […] The donor cell (volume 3 mL) was filled with solution of compounds whose permeability was evaluated. […] The concentration of compound in the receptor medium was determined using a Molecular Devices SpectroMax M2, UV visible and Fluorescent plate reader at ex 495/em 521. […]
# [2] = Transmembrane transport and permeability, chorion; format: in vitro ADME, human; details: chorion alone
# From the text: as §1, §2
# Solubility in PBS/H2O = format: physicochemical
# [3] = Transmembrane transport and permeability, amnion; format: in vitro ADME, human; details: amnion alone
# From the text: as §1, §2
substance,measurement,setting,value
"fluorescein isothiocyanate [FITC, reference compound]",permeability relative to G4-PAMAM-dendrimer,[1],10 fold
same,permeability relative to G4-PAMAM-dendrimer,[2],100 folds
same,Solubility in PBS/H2O,Solubility in PBS/H2O,Not soluble and Not
same,permeability relative to G4-PAMAM-dendrimer,[3],100 folds
